Test results taken from patent US10526294B2, “Pyrrolobenzodiazepines and conjugates thereof” (priority 2016, dated 2020).

Tested on: SKBR3 cells
Assay: Cell viability assay (CellTiter-Glo), SKBR3
Assay type: cell-based
Settings: Homo sapiens, SK-BR-3; conjugates (Table II); HER2 expressing cells; 72 h
Experimental: Cell Viability Assay for Antibody-Polymer-Drug Conjugates.
PBD compounds and conjugates thereof were evaluated for their antiproliferation properties in tumor cell lines in vitro using CellTiter-Glo® (Promega Corp). Cells were plated in black walled 96-well plate and allowed to adhere overnight at 37° C. in a humidified atmosphere of 5% CO2. BT474, SKBR3, NCI-N87 cells (HER2 expressing cells), JIMT1 cells (HER2 medium expression level cells) and MCF7 cells (HER2 low expressing levels cells) and were plated at a density of 5,000 cells per well. The next day the medium was replaced with 50 μL fresh medium and 50 μL of 2× stocks of PBD compounds or antibody-PBD conjugate were added to appropriate wells, mixed and incubated for 72 h. CellTiter-Glo® reagent was added to the wells at room temperature and the luminescent signal was measured after 10 min using a SpectraMax M5 plate reader (Molecular Devices). Dose response curves were generated using SoftMax Pro software. IC50 values were determined from four-parameter curve fitting.

C=C1CC2C=Nc3cc(OCCCC(=O)Nc4cn(C)c(C(=O)Nc5ccc(-c6cc(C(=O)n7ccc8cc(C(=O)OC)ccc87)n(C)c6)cc5)n4)c(OC)cc3C(=O)N2C1 (stereo not shown) [Compound 109, methyl 1-(4-(4-(4-(4-((7-methoxy-2-methylene-5-oxo-2,3,5,11a-tetrahydro-1H-benzo[e]pyrrolo[1,2-a][1,4]diazepin-8-yl)oxy)butanamido)-1-methyl-1H-imidazole-2-carboxamido)phenyl)-1-methyl-1H-pyrrole-2-carbonyl)-1H-indole-5-carboxylate]
IC50: 0.31 nM
